Values quoted from earlier work as cited in US11224584B2, “Sleep apnea treatment” (The Regents of The University of Michigan, priority 2012, dated 2022).

Substance: REBIF beta-interferon: subcutaneous recombinant interferon-beta-1a (Merck-Serono and Pfizer), disease-modifying drug used to treat MS
- Time it can be stored at room temperature: up to 30 days
